The record followed here is patent publication US20250320471A1, “Method for Producing Compounds, Method for Producing Compound Library, Compound Library, and Screening Method” (The University of Tokyo, priority 2021, published 2025).

Series [1] concerns LimF-H172L. The series can be described thus: Steady-state kinetics of prenylation by LimF-H172L mutant. Type of series: biochemical, Limnothrix sp. CACIAM 69d. The method, then:
(§1) Kinetic parameters of the His-prenylation reaction facilitated by LimF were determined based on reactions under optimal conditions using substrates of different concentrations. For the Tyr-prenylation described below, the kinetic parameters were measured under the same conditions except that LimF was set to 5 μM and the reaction temperature was set to 16° C. In order to estimate the kinetic parameters, the initial rate and substrate concentration were fitted to the Michaelis-Menten model in Graphpad Prism 8.4.2 software.

In series [2] the test system is LimF-H172L. The series can be described thus: Tyr-prenylation of bioactive peptides by LimF-H172L variant. Type of series: biochemical, Limnothrix sp. CACIAM 69d. The following applies: 50 μM substrate, 40 μM LimF-H172L, 2 mM GPP, 20 hours; for % prenylation (LC/MS): Tyr-prenylation.
The target in another series is T1, bcLimE2.
T1 chain: RYPHEEIP

Another series has as its target T2, teR6-H5A.
T2 chain: FRGNATYIPC

The next series relates to teR6 and teR6-H5A. The experiment in a line: Tyr-prenylation ability of LimF variants on teR6 and teR6-H5A. The class given is biochemical. On the procedure:
as §1
Similarly, modification of the teR6 and teR6-H5A substrates facilitated by wt-LimF and each LimF variant was performed to evaluate the Tyr-prenylation ability thereof. The reaction was carried out in the same manner as the prenylation of bcLimE2, except that teR6 or teR6-H5A was used as the substrate and the reaction was carried out with 5 μM LimF for 24 hours.

[3] abbreviates: Tyr-prenylation (C10 O-) by LimF-H172L.
The mark [4] stands for this setting: Tyr-prenylation (C10 O-) by LimF-H172L, listed as tecyclo[DFRGNATYIPC].

Ends that are not written are not given here. Peptide text beside a SMILES is read from it.

For orientation: Km means the concentration of substrate that gives half-maximal velocity. As usually defined, the kcat is the number of substrate molecules converted per active site and unit of time at saturation. Regarding `CCC(C)C1NC(=O)C(CCC(=O)O)NC(=O)C(CCC(=O)O)NC(=O)C(Cc2c[nH]cn2)NC(=O)C2CCCN2C(=O)C(Cc2ccc(O)cc2)NC(=O)C(CCCNC(=N)N)NC(=O)C2CCCN2C1=O` (stereo not drawn) [bcLimE2] (cyclo(EEIPRYPH); configuration not given here), in the series on LimF-H172L [1] (His-prenylation by LimF-H172L), the Km came to 1700 ± 400 µM and the kcat was 0.00083 ± 0.00017 s⁻¹. In the case of “H-Asp-Arg-Val-Tyr-Ile-His-Pro-Phe-OH [ANGIOTENSIN II]”, the “Tyr-prenylation by LimF-H172L variant (in words)” value in the series on LimF-H172L [2] is given as “high efficiency”. For “PGTCEICAYAACYGC (cysteine pairing not given here) [Guanylin, Guanylyl cyclase receptor GC-C agonist]”, the “% prenylation (LC/MS)” value in the series with LimF-H172L [2] is reported as 1%.

For “Trp-His-Trp-Leu-Gln-Leu-Lys-Pro-Gly-Gln-Pro-Met-Tyr-OH (WHWLQLKPGQPMY-OH) [α-mating factor, cell signaling peptide for yeast]”, the “% prenylation (LC/MS)” value with LimF-H172L [2] was found to be 4%. In the case of tecyclo[DFRGNATYIPC] [teR6-H5A], in the series on LimF-H172L [1] (setting [3]), the Km was 1700 ± 400 µM and the kcat is 0.02 ± 0.0017 s⁻¹. In addition, in the series with LimF-H172L [1] (setting [4]), the Km came to 1740 µM and the kcat amounted to 0.0198 s⁻¹. Take tecyclo[wAVSNLPPRPHITYIEC]S [PBm1]: the “% prenylation (LC/MS)” value in the series with LimF-H172L [2] amounted to 5%. Still for that read-out and setting: the value for tecyclo[yWYYAWDQTYKAFPC]G [aMDS] was 1%.

B1: LimF-H172L (protein)
chain: MKKRKSSKVFKSTIAPEEKLRYIGNHKQAFDIEPLYPLALFEEFVATTGDCIIECSGKIKQDQLYPARIDLQFSDKHHFHNIHTSIDFLKRAASRTDVNLNLDILATFLAGNFDYSKVQNILAGIDLRQNLGESKLKLFIRIGDYPAKMAVAKHLCNITPESEAMLRSDTLLIGFDFYLDGRSAIELYPELKKDEFNHPFIYNQLKTILSPEALKPLPLCNLFGIGLSPANEANVLYYHLENIEDFLSYFPINDTARRVHDFYLQQEGSRRMWVALSESEMKAGRINNVNLYYSKAFTSQNP
Turning to B1, in the series with bcLimE2, the Km (mM), steady-state kinetics of His-prenylation with GPP came to 1.7 mM. The Km (mM), steady-state kinetics of Tyr-prenylation with GPP with teR6-H5A turned out to be 1.7 mM.

B2: LimF-H172L: LimF in which His at position 172 is replaced by Leu, SEQ ID NO: 13 (protein)
chain: B1 chain
modifications: LimF-H172L
Regarding B2, the “fold increase in kcat/Km over the wild type” value with teR6 and teR6-H5A (steady-state kinetic assay, Tyr-prenylation of teR6-H5A (Table 11, Items 3 and 5)) was found to be 5 fold. Further, in the series with teR6 and teR6-H5A (teR6 or teR6-H5A substrate, 5 μM enzyme, 24 hours), the Tyr-prenylation ability entry is reported as “more favorable modification efficiency for Tyr-containing substrates than wild-type LimF”.
